Test results reported in patent US6545002B1 (dated 2003).

Amino acid sequences for entries named in this document (tags omitted).
UniProt P25099, whole entry: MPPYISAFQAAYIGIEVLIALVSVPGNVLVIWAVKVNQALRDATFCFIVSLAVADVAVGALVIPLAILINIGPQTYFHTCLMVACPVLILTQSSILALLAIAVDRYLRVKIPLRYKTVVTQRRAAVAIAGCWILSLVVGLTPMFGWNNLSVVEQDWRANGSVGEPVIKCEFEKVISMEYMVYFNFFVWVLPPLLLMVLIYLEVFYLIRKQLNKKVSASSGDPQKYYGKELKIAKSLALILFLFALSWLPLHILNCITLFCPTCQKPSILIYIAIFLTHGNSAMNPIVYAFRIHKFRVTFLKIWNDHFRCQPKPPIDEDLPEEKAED

Tests used:
[1] = molecular target: T1, human A2B receptors (hA2B) (Homo sapiens, UniProt P29275); assay: Radioligand binding ([125I]ABOPX / [3H]ZM241385) at human A2B receptors expressed in HEK-293 cells; conditions: read-out: Ki value at human A2B receptors
T1 sequence (P29275 1-332): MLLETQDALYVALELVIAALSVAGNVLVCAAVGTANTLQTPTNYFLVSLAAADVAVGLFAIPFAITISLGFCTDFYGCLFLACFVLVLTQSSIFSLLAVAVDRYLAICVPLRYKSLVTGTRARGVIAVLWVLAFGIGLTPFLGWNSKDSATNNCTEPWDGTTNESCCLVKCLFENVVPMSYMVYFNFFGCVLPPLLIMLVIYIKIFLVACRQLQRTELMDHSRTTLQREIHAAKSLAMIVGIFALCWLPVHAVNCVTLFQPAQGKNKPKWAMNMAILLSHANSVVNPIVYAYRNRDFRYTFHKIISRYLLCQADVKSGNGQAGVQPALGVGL

rat A1 receptors (rA1) = rat A1 receptors (rA1) (Rattus norvegicus, UniProt P25099); assay: Displacement of [3H]R-PIA binding in rat brain (cerebral cortical) membranes; conditions: read-out: rA1 Ki or IC50; Table 3

Ki [1] | Ki (rat A1 receptors (rA1)) | Structure (SMILES)
1.97 nM |  | CCCn1c(=O)c2[nH]c(-c3ccc(OCC(=O)Nc4ccc(C#N)cc4)cc3)nc2n(CCC)c1=O [Compound 27, 8-[4-[((4-Cyano)phenylcarbamoylmethyl)oxy]phenyl]-1,3-di-(n-propyl)xanthine]
 | 34.3 µM | CC(=O)c1ccccc1NC(=O)/C=C/c1ccc(-c2nc3c([nH]2)c(=O)n(Cc2ccccc2)c(=O)n3Cc2ccccc2)cc1 [Compound 37, 8-[4-(2-(2-Acetylphenyl)carbamoyl-trans-vinyl)phenyl]-1,3-dibenzylxanthine]
